Experiments:
[1] = system: A1555G (RNA, rRNA) GGCGUCACCCCUUCGGGGCAAGUCGCC; assay: fluorescent displacement assay; conditions: 50 mM Na+; F–NEO displaced (0.1 µM 1:1 complex), 10 mM HEPES, 0.4 mM EDTA, pH 7
[2] = system: C1494U (RNA, rRNA) GGCGUCACUCCUUCGGGACAAGUCGCC; assay: fluorescent displacement assay; conditions: 50 mM Na+; F–NEO displaced (0.1 µM 1:1 complex), 10 mM HEPES, 0.4 mM EDTA, pH 7

SMILES: NC[C@@H]1O[C@H](O[C@H]2[C@@H](O)[C@H](O[C@@H]3[C@@H](O)[C@H](N)C[C@H](N)[C@H]3O[C@H]3O[C@H](CN)[C@@H](O)[C@H](O)[C@H]3N)O[C@@H]2CO)[C@H](N)[C@@H](O)[C@@H]1O [NEO, neomycin]
- IC50 [1]: 119.2 ± 3.7 nM
- IC50 [2]: 67.9 ± 2.0 nM

Source: article PMC5971063 (ACS infectious diseases, 2017)
